Results taken from US12359173B2, “Serum-free and xeno-free culture medium for expanding mesenchymal stem cells” (NUWACELL BIOTECHNOLOGIES CO., LTD., priority 2023, dated 2025).

Test system: iMSCs
Experiment: iMSC expansion, seeded at 1000 cells/well, day 10 morphology and cell number
Assay type: cell-based
Conditions: Example 13, 4 mg/L dialyzed HSA, 25 μg/ml heparin sodium, FIG. 13
Experimental: Cryopreserved iMSCs (RC01005, Nuwacell Co., Ltd.) were seeded in 6-well plates at 1000 cells/well in M1 medium to thaw the cells. The above medium was replaced 24 h later with 2 ml/well of the following medium: M1, SFM-M, PPRF, or MEM-FBS. M1 medium contained IMDM (+NaHCO3)/F12 (50%/50%), 2% by volume of Ultroser G (a Serum Replacement (SR)), 1% by volume of Glutamax, 1-150 μg/ml (e.g., 120 μg/ml) of transferrin, 5 μg/ml of insulin, 1-150 μg/ml (e.g., 110 μg/ml) of Mg Ascorbate, 20 μM of Ethanolamine, and 10 μM of Putrescine 2HCl. […]
Cryopreserved iMSCs (RC01005, Nuwacell Co., Ltd.) were seeded in 6-well plates at 1000 cells/well in M1 medium to thaw the cells. […] On day 10 of culture, the cells were digested by solase (RP01021, Nuwacell Co., Ltd.) for 3 min and collected, and then centrifugated, and with the supernatant removed, resuspended in the corresponding medium, and the number of iMSC cells was counted by cell viability analyzer (Vi-CELLTMXR, BECKMAN COULTER) (FIG. 5). […]

With “dialyzed HSA: human serum albumin dialyzed in DPBS at 4° C. overnight, 15 KD bag” the “effect of addition to M3 on iMSC growth” value was “could significantly lower the required HPLT concentration in promoting iMSC growth”.
